What was measured:
[1] = ALL Taxol Compounds (1uM) PC3 Vs Liver Vs HT1080 Metabolism
Method: Table printed on a drawing sheet, Fig. 7 (Cont.)
Title: ALL Taxol Compounds (1uM) PC3 Vs Liver Vs HT1080 Metabolism
(§1) Footnotes: [diagonal hatching] Tumour (51-100%) / Liver (0-15%) / [horizontal hatching] Tumour & Liver (26-50%) / [cross hatching] Tumour (0-25%) / Liver (51-100%)
First reader's note: Continuation of Fig. 7; cell hatching classifies the values per the legend, and the title states 1uM while the head row states 1mM.

[2] = ALL Taxol Compounds (10uM) PC3 Vs Liver Vs HT1080 Metabolism
Method: Table printed on a drawing sheet, Fig. 8 (Cont.)
Title: ALL Taxol Compounds (10uM) PC3 Vs Liver Vs HT1080 Metabolism
as §1
First reader's note: Continuation of Fig. 8; the title prints 10uM while the head row prints 10mM, and cell hatching marks the classes given in the legend.

[3] = Top 3 Taxol Compounds (20uM) PC3 Vs LNCaP (x2) Vs PNT2 Cell-based assay
Method: Table printed on a drawing sheet, Fig. 9 (Cont.)
Title: Top 3 Taxol Compounds (20uM) PC3 Vs LNCaP (x2) Vs PNT2 Cell-based assay
Footnotes: [diagonal hatching] Tumour (51-100%) / Non-Tumour (0-15%) / [horizontal hatching] Tumour & Non-Tumour (26-50%) / [cross hatching] Tumour (0-25%) / Non-Tumour (51-100%)
First reader's note: Continuation of Fig. 9; cell shading (hatching) classifies the values by the legend, and all compounds were tested at 20uM in cell culture.

[4] = ALL Taxol Compounds (1uM) (ALL Tissue Metabolism)
Method: Table printed on a drawing sheet, Fig. 11
Title: ALL Taxol Compounds (1uM) (ALL Tissue Metabolism)
Footnotes: Tumour (51-100%) / Liver (0-15%) / Tumour & Liver (26-50%) / Tumour (0-25%) / Liver (51-100%)
First reader's note: Cell hatching codes the classes given in the legend; all compounds tested at 1uM in tissue homogenates.

**Q.** What does the source list for FITC [ICT3201]?
**A.** Tissue Homogenate Metabolism (1 µM) | HT1080 Stability (% loss) [1]: 91 % loss; Tissue Homogenate Metabolism (1 µM) | HT1080 Taxol Release (% gain) [1]: 23 % gain; Tissue Homogenate Metabolism (1 µM) | Liver Stability (% loss) [1]: 21 % loss; Tissue Homogenate Metabolism (1 µM) | Liver Taxol Release (% gain) [1]: 5 % gain; Tissue Homogenate Metabolism (1 µM) | PC3 Stability (% loss) [1]: 91 % loss; Tissue Homogenate Metabolism (1 µM) | PC3 Taxol Release (% gain) [1]: 20 % gain; Tissue Homogenate Metabolism (10 µM) | HT1080 Stability (% loss) [2]: 81 % loss; Tissue Homogenate Metabolism (10 µM) | HT1080 Taxol Release (% gain) [2]: 29 % gain; Tissue Homogenate Metabolism (10 µM) | Liver Stability (% loss) [2]: 18 % loss; Tissue Homogenate Metabolism (10 µM) | Liver Taxol Release (% gain) [2]: 11 % gain; Tissue Homogenate Metabolism (10 µM) | PC3 Stability (% loss) [2]: 79 % loss; Tissue Homogenate Metabolism (10 µM) | PC3 Taxol Release (% gain) [2]: 25 % gain; Cell Culture Metabolism (20uM) | LNCaP (2) Taxol Release (% gain) [3]: 38 % gain; Cell Culture Metabolism (20uM) | LNCaP Stability (% loss) [3]: 91 % loss; Cell Culture Metabolism (20uM) | LNCaP Taxol Release (% gain) [3]: 31 % gain; Cell Culture Metabolism (20uM) | PC3 Stability (% loss) [3]: 57 % loss; Cell Culture Metabolism (20uM) | PC3 Taxol Release (% gain) [3]: 30 % gain; Cell Culture Metabolism (20uM) | PNT2 Stability (% loss) [3]: 62 % loss; Cell Culture Metabolism (20uM) | PNT2 Taxol Release (% gain) [3]: 8 % gain; Tissue Homogenate Metabolism (1uM) | Kidney Stability (% loss) [4]: 45 % loss; Tissue Homogenate Metabolism (1uM) | Kidney Taxol Release (% gain) [4]: 37 % gain; Tissue Homogenate Metabolism (1uM) | Lung Stability (% loss) [4]: 69 % loss; Tissue Homogenate Metabolism (1uM) | Lung Taxol Release (% gain) [4]: 50 % gain

Source: US20190015519A1, “MMP-SENSITIVE TAXANE PRODRUG” (Incanthera Ltd, priority 2015, published 2019)
